A short description of data set [1]: T1/2 in rat liver microsomes. It counts as in vitro ADME.
A short description of data set [2]: T1/2 in human liver microsomes. It is filed as in vitro ADME. (Microsomes from liver hold many membrane-bound enzymes, among them those of drug oxidation.)
Data set [3] can be described thus: Non-Spec Binding. It counts as in vitro ADME.
For data set [4], the target named is PDE5 (Homo sapiens, UniProt O76074). Nature of the data set: PDE-5 human inhibition. It is filed as biochemical. Conditions: read-out: PDE-5 human IC50.
In data set [5] the test system is human serum components. Nature of the data set: Protein Binding. As to the method: In general, protein binding is assessed by measuring the capacity of molecules of the invention to bind to one or more human serum components or mimics thereof. In one embodiment, suitable functional residues may be identified by screening of surfaces comprising such residues for their ability to resist adsorption of serum components, including, but not limited to serum proteins, and preferably human serum proteins. Candidate residues can be screened directly by attaching them to a solid support and testing the support for protein resistance. Alternatively, candidate residues are incorporated into, or linked to molecules of pharmaceutical interest. Such compounds may be synthesized on a solid support, or bound to a solid support after synthesis. In a non-limiting example of a direct binding assay, immobilized candidate functional residues or molecules incorporating such residues are tested for their ability to bind serum components. The serum components can be labeled with a signaling moiety for detection, or a labeled secondary reagent that binds to such serum components can be used.
A direct binding analysis can also be preformed in liquid phase. For example, test compounds can be mixed with one or more serum components in liquid phase, and the unbound molecules determined.

Chains of the proteins cited; added tags and fusions are not shown. Residues count along the entry.
UniProt Q14432, whole entry, looked up: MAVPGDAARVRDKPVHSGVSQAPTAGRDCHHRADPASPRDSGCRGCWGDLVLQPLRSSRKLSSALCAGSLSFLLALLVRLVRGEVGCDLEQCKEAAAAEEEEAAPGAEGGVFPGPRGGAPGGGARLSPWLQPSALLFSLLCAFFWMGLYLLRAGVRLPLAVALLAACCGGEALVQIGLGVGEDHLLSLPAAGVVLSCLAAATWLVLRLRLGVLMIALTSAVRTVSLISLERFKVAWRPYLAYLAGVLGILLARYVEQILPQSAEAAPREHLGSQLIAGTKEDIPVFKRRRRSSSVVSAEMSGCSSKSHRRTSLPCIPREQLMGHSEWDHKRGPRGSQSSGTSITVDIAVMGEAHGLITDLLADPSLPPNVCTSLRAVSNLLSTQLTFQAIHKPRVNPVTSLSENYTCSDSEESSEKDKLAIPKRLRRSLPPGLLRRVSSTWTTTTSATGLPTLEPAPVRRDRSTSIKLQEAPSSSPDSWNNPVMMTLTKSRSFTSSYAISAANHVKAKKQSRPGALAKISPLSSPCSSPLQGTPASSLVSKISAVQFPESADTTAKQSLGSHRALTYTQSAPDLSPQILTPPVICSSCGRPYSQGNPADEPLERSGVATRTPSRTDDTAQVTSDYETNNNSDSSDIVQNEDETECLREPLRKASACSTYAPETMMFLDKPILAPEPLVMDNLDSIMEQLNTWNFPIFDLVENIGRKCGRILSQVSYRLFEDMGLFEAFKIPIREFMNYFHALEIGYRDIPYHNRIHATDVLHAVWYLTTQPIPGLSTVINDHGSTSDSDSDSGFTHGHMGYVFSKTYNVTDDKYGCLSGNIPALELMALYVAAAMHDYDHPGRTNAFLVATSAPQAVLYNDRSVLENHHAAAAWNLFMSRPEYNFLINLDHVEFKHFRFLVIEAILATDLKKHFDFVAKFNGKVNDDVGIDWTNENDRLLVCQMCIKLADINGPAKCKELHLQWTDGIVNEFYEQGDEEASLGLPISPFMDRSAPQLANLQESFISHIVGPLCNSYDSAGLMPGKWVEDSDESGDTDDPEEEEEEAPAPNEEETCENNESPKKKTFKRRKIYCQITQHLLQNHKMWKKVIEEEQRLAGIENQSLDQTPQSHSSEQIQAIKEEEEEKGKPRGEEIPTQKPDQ
UniProt P11541, 2-856 limits assumed: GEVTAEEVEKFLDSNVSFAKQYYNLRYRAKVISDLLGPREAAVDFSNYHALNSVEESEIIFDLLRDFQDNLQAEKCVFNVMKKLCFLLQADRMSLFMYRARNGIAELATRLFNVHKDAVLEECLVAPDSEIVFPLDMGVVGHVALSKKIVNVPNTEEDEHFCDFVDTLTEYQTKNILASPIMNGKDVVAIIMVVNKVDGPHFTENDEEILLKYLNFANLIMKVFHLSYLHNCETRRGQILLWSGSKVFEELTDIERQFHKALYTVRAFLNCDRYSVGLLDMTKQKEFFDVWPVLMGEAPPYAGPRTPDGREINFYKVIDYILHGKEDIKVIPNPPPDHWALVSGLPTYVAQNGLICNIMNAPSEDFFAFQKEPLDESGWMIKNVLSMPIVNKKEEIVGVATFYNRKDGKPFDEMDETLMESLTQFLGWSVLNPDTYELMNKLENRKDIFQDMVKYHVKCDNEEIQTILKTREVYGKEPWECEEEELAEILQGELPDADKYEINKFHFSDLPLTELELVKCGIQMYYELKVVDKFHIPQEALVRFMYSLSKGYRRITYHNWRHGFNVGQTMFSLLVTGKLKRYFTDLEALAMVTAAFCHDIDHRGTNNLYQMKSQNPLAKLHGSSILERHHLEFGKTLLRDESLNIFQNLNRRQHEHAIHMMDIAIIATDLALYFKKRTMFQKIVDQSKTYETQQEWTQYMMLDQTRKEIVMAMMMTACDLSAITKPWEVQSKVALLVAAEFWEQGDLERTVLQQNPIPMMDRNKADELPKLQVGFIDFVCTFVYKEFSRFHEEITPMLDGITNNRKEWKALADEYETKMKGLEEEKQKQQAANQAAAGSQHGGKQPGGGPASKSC
UniProt P23439, 2-850 limits assumed: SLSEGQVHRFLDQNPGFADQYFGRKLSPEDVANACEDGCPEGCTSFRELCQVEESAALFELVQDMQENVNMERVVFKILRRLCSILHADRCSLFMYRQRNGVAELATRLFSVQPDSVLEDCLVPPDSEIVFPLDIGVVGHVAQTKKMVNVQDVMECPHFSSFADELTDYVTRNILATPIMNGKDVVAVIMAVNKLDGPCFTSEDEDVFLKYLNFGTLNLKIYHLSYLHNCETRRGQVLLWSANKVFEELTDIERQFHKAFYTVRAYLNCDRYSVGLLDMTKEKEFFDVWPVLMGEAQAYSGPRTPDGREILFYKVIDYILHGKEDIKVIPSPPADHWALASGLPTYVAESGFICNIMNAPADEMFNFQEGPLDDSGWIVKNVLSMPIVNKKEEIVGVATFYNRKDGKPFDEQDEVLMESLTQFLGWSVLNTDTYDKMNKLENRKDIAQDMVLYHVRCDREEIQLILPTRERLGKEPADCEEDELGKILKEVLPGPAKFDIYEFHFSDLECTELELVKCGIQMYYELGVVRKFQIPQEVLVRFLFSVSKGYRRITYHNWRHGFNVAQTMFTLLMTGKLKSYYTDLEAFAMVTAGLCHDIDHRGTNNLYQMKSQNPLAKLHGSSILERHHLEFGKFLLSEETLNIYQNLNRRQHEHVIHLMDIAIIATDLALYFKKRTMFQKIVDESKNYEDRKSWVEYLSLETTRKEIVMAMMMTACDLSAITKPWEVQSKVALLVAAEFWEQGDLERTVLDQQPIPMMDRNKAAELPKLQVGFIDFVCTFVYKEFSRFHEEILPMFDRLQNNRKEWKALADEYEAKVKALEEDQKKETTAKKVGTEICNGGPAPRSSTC

The subject of data set [6] is mouse 3T3. The data set is described as follows: Chronic Cytoxicity (mouse 3T3). It counts as cell-based.
The test system of data set [7] is PDE-4 human. Nature of the data set: PDE-4 human inhibition. It counts as biochemical. Conditions: read-out: PDE-4 human IC50.
Data set [8] can be described thus: Solubility. It counts as physicochemical.
A short description of data set [9]: PAMPA permeability. It counts as in vitro ADME. On the technique in general: The PAMPA barrier holds no transporters, so it reflects passive diffusion.
Data set [10] has as its target PDE-3 (UniProt Q14432). The data set is described as follows: PDE-3 inhibition. It is filed as biochemical. Conditions: read-out: PDE-3 IC50.
For data set [11], the target named is PDE-6 bovine (Bos taurus, UniProt P11541+P23439). Nature of the data set: PDE-6 bovine inhibition. It counts as biochemical. As to conditions: read-out: PDE-6 bovine IC50.
Data set [12] deals with PDE-1. The data set is described as follows: PDE-1 inhibition. As to conditions: read-out: PDE-1 IC50. It is filed as biochemical.
For data set [13], the system named is Caco-2. The data set is described as follows: Caco-2 permeability. The text has this: Several model systems are available, employing monolayers of various cell types, for evaluation of active transport of pharmaceutically active substances. For example, monolayers of Caco-2 intestinal epithelial cells can be used to evaluate active transport of substances between the intestine and the bloodstream. When plated on a surface which allows the flow of material from apical to basolateral and vice versa, such cells form a biological membrane which can be used to simulate physiological absorption and bioavailability. In another example, mouse brain capillary endothelial cell (MBEC) lines have been established to evaluate active transport in and out of the central nervous system. Another example of such cells is HT29 human colon carcinoma cells. Further, monolayers expressing particular transporter proteins can be established using transfected cells. For example, Sasaki et al (2002) J. Biol. Chem. 8:6497 used a double-transfected Madin-Darby canine kidney cell monolayer to study transport of organic anions.
For orientation: Caco-2 cells form a polarised layer with tight junctions and transporters.

By IC50 is commonly meant the concentration at which inhibition is half-maximal. Broadly, the GI50 is the concentration that inhibits growth by half. Higher therefore signals lower sensitivity of the cells.

Turning to `CCCc1nc(C)c2c(=O)[nH]c(-c3cc(S(=O)(=O)N(C)CCOC)ccc3OCC)nn12`, in data set [1], the “T1/2 (min) liver microsomes rat” value is 12.34 min. Moreover, the “T1/2 (min) liver microsomes human” value in [2] is 19.3 min. Also, in data set [3], the “Non-Spec Binding (%)” value is given as 23.64%. Also, the IC50 in [4] amounted to 0.163 nM; in data set [7], 1840 nM; in data set [10] it was 1290 nM; in data set [11], 1.97 nM; in data set [12], 17.2 nM. Besides, the “Protein Binding (%)” value in [5] is reported as 97.4%. In addition, the GI50 in data set [6] was determined as 100000 nM. Moreover, the LC50 (50% lethal concentration) in data set [6] (read-out: Chronic Cytoxicity (mouse 3T3) LC50, mouse 3T3) was over 100000 nM. In addition, the “Solubility (ug/mL) pH 2.7” value in data set [8] is over 50 ug/mL. In [8], the “Solubility (ug/mL) pH 7.4” value is over 50 ug/mL. Besides, the “PAMPA (10^−6 cm/s) Hex” value in data set [9] (Hex) was 78.19 10^−6 cm/s. The “PAMPA (10^−6 cm/s) Lec” value in data set [9] (Lec) is reported as 7.14 10^−6 cm/s. For the same compound, in data set [13] (AtoB), the “Caco-2 (10^−6 cm/s) AtoB” value is given as 51.85 10^−6 cm/s. Also, the “Caco-2 (10^−6 cm/s) BtoA” value in [13] (BtoA) is given as 56.25 10^−6 cm/s.

For `CCCc1nc(C)c2c(=O)[nH]c(-c3cc(S(=O)(=O)N4CCN(C(=O)CN5CCOCC5)CC4)ccc3OCC)nn12`, in data set [3], the “Non-Spec Binding (%)” value is on record as 6.6%. For the same compound, the IC50 amounted to 0.2 nM in data set [4]; 4300 nM in [7]; 4000 nM in data set [10]; 1.3 nM in data set [11]; 9.3 nM in [12]. In [5], the “Protein Binding (%)” value stood at 84.5%. Further, the “Solubility (ug/mL) pH 2.7” value in data set [8] is on record as over 124.4 ug/mL. Further, the “Solubility (ug/mL) pH 7.4” value in data set [8] is given as over 116.7 ug/mL.
